This is an account of results in publication PMC2918654 (Bioorganic & medicinal chemistry, 2010).

The assay addresses δ-opioid receptors (Rattus norvegicus, UniProt P33533). In words: Competitive binding assay, δ-opioid receptors, [3H]deltorphin II. Also on record: species or system Sprague-Dawley rats. Particulars: read-out: KD of radioligand; radioligand for δ-opioid receptors, 45.0 Ci/mmol.

pKd: −log10 of the molar value.

For “H-Tyr-D-Ala-Phe-Asp-Val-Val-Gly-NH2 (YAFDVVG) [[^3H]deltorphin II]”, the negative-log Kd (pKd) (as a rule, the Kd on a negative log10 scale, so that one unit is a factor of ten) is 8.85.
